Assay results taken from patent EP4843571A2, “CONJUGATE OF PROTEIN TRANSLATION INHIBITOR AND USE THEREOF” (dated 2026).
Where two headings read alike, the source gives them in different places. One block for each compound: values may come before it.

Columns and labels:
Experiment in all cases: Inhibition of in vitro proliferation of tumor cells by small molecule compounds (CTG)
DLD-1 = system: DLD-1
Experimental: (§1) Objective: To assess the inhibitory effects of the drug compounds on tumor cell proliferation, for example, their inhibitory activity against the in vitro proliferation of NCI-H716, NCI-H1975, NCI-H1373, NCI-H647, NCI-H520, BT474, DLD-1, NCI-N87, NUGC-4, SNU-423, MKN-45, SK-OV-3, OVCAR3, Ls174T, HCC1954, and ES2 tumor cells. The cells were treated with the compounds at different concentrations in vitro. After 5 days of culture, the proliferation of the cells was assessed using the CTG (CellTiter-Glo® Luminescent Cell Viability Assay, Promega, Cat. No. G7558) reagent, and the in vitro activity of the compounds was evaluated based on their IC50 values. • 1. Cell suspension preparation: NCI-H716, NCI-H1975, NCI-H1373, NCI-H647, NCI-H520, BT474, DLD-1, NCI-N87, NUGC-4, SNU-423, MKN-45, SK-OV-3, OVCAR3, Ls174T, HCC1954, and ES2 cells in the log phase were collected, washed with PBS once, and then digested with 2-3 mL of trypsin for 2-3 min. After the cells were digested completely, 10-15 mL of a cell culture medium was added to wash off the digested cells. The cells were centrifuged at 1000 rpm for 5 min, and the supernatant was discarded. Subsequently, the cells were resuspended in 10-20 mL of the cell culture medium to prepare single-cell suspensions. • 2. Cell plating: The BT474, DLD-1, NCI-N87, NUGC-4, SNU-423, MKN-45, SK-OV-3, Ls174T, and HCC1954 single-cell suspensions were each mixed well, and their viable cell density was adjusted to 6 × 10^4 cells/mL with the cell culture medium. After the density adjustment, the resulting cell suspensions were each mixed well and added to 96-well cell culture plates at 50 µL/well. The culture plates were incubated overnight in an incubator (37 °C, 5% CO2). • 3. Compound solution preparation: The compounds were dissolved in DMSO to prepare stock solutions with an initial concentration of 10 mM. For the small molecule compounds, a total of 6 concentrations were prepared: 1000 nM, 333 nM, 111 nM, 37.03 nM, 12.34 nM, and 4.11 nM. • 4. Sample addition: The prepared test samples with different concentrations were added to the culture plates, with two replicate wells set for each sample. The culture plates were incubated in an incubator for 5 days (37 °C, 5% CO2). • 5. Color development: The 96-well cell culture plates were taken out, 50 µL of the CTG reagent was added to each well, and the plates were incubated at room temperature for 10 min. • 6. Plate reading: The 96-well cell culture plates were taken out and placed in a microplate reader, and the chemiluminescence was measured using a microplate reader. • 7. Data analysis: The cell survival rates were calculated according to the formula: (Lumtest drug - Lumblank control)/(Lumsolvent blank control - Lumblank control) × 100%. Sigmoid dose-survival rate curves were plotted using a nonlinear regression model in GraphPad Prism software, and the IC50 values were calculated. Table 7-1. IC50 values for the inhibition of the in vitro proliferation of tumor cells by the small molecule compounds of the present application

BT474 = system: BT474
Experimental: as §1

MKN-45 = settings: read-out: Proliferation inhibitory activity IC50 (nM) MKN-45, MKN-45 cells, 5 days of culture
Experimental: as §1

NCI-N87 = settings: read-out: Proliferation inhibitory activity IC50 (nM) NCI-N87, 5 days of culture
Experimental: as §1

HCC1954 = settings: read-out: Proliferation inhibitory activity IC50 (nM) HCC19 54, 5 days of culture
Experimental: as §1

[1] = read-out: Proliferation inhibitory activity IC50 (nM) DLD-1, DLD-1, 5 days of culture
[2] = read-out: Proliferation inhibitory activity IC50 (nM) BT474, BT474, 5 days of culture
[3] = read-out: Proliferation inhibitory activity IC50 (nM) DLD-1, DLD-1 cells, 5 days of culture
[4] = read-out: Proliferation inhibitory activity IC50 (nM) BT474, BT474 cells, 5 days of culture

- IC50 (MKN-45): 1.91 nM
Structure (SMILES): COc1cc(-c2ncccn2)cc2c1[C@]1(O)[C@H](O)[C@H](C(=O)N(C)OC)[C@@H](c3cccc(N)c3)[C@]1(c1ccc(C#N)cc1)O2 (racemic)

- IC50 (BT474; [4]): 4.65 nM
Structure (SMILES): COc1cc(-c2ncco2)cc2c1[C@]1(O)[C@H](O)[C@H](C(=O)N(C)OC)[C@@H](c3ccccc3)[C@]1(c1cccc(N)c1)O2 (racemic)

- IC50 (MKN-45): 3.12 nM
- IC50 (NCI-N87): 2.01 nM
- IC50 (BT474; [4]): 4.44 nM
Structure (SMILES): COc1cc(-c2ncco2)cc2c1[C@]1(O)[C@H](O)[C@H](CN(C)C)[C@@H](c3cccc(N)c3)[C@]1(c1ccc(C#N)cc1)O2 (racemic)

- IC50 (BT474; [2]): 1.29 nM
Structure (SMILES): COc1cc(-c2ncco2)cc2c1[C@]1(O)[C@H](O)[C@H](C(=O)N(C)OC)[C@@H](c3cccc(N)c3)[C@]1(c1ccc(C#N)cc1)O2 (single isomer, unassigned)

- IC50 (BT474; [2]): 1.16 nM
Structure (SMILES): COc1cc(-c2ncco2)cc2c1[C@]1(O)[C@H](O)[C@H](CN(C)C)[C@@H](c3cccc(N)c3)[C@]1(c1ccc(C#N)cc1)O2 (single isomer, unassigned)

Continued, compound first:

Structure (SMILES): CCn1ccc(C(=O)Nc2ccc3c(c2)O[C@@]2(c4ccc(Cl)cc4)[C@H](c4ccccc4)C[C@H](O)[C@@]32O)n1
- IC50 (DLD-1; [1]): > 50 nM
- IC50 (BT474; [2]): > 50 nM

Structure (SMILES): COc1cc(-c2ncco2)cc2c1C1(O)C(NC(=O)CO)CC(c3ccccc3)C1(c1ccc(C#N)cc1)O2 (racemic)
- IC50 (DLD-1; [3]): 2.04 nM

Structure (SMILES): COc1ccc([C@@]23Oc4cc(-c5ncco5)cc(OC)c4[C@]2(O)[C@@H](CN(C)C)C[C@H]3c2cccc(N)c2)cc1 (racemic)
- IC50 (DLD-1; [3]): 2.49 nM
- IC50 (HCC1954): 0.722 nM

Structure (SMILES): COc1ccc([C@@]23Oc4cc(-c5ncco5)cc(OC)c4[C@]2(O)[C@@H](CNC(=O)CN(C)C)C[C@H]3c2cccc(N)c2)cc1 (racemic)
- IC50 (DLD-1; [3]): 11.8 nM

Structure (SMILES): COc1ccc([C@@]23Oc4cc(-c5ncco5)cc(OC)c4[C@]2(O)[C@H](O)C[C@H]3c2cccc(N)c2)cc1 (racemic)
- IC50 (BT474; [4]): 7.89 nM

Structure (SMILES): COc1ccc([C@@]23Oc4cc(-c5ncco5)cc(OC)c4[C@]2(O)[C@H](O)[C@H](CN(C)C)[C@H]3c2cccc(N)c2)cc1 (racemic)
- IC50 (BT474; [4]): 4.44 nM
- IC50 (HCC1954): 1.88 nM

Structure (SMILES): CCN(CC)C[C@H]1C[C@@H](c2cccc(N)c2)[C@]2(c3ccc(OC)cc3)Oc3cc(-c4ncco4)cc(OC)c3[C@]12O (single isomer, unassigned)
- IC50 (DLD-1; [1]): < 10 nM
- IC50 (BT474; [2]): < 10 nM

Structure (SMILES): COc1ccc([C@@]23Oc4cc(-c5ncco5)cc(OC)c4[C@]2(O)[C@@H](CN(C)C)C[C@H]3c2cccc(N)c2)cc1 (single isomer, unassigned)
- IC50 (DLD-1; [1]): 1.36 nM
- IC50 (BT474; [2]): 1.34 nM

Structure (SMILES): COc1ccc([C@@]23Oc4cc(-c5ncco5)cc(OC)c4[C@]2(O)[C@@H](CNC(=O)CN(C)C)C[C@H]3c2cccc(N)c2)cc1 (single isomer, unassigned)
- IC50 (DLD-1; [1]): 3.86 nM
- IC50 (BT474; [2]): 1.32 nM

Structure (SMILES): COc1ccc([C@@]23Oc4cc(-c5ncco5)cc(OC)c4[C@]2(O)[C@H](O)C[C@H]3c2cccc(N)c2)cc1 (single isomer, unassigned)
- IC50 (BT474; [2]): 4.85 nM
